# Antibody variant affinities, Ab-91 heavy chain, assay 2

From the AlphaSeq antibody data of Engelhart et al. 2022 (doi:10.1038/s41597-022-01779-4), copy in the FLAb collection.

Target: peptide PDVDLGDISGINAS, taken from heptad repeat 2 (HR2) of SARS-CoV-2 spike.

Each scFv is VL, three GGGGS repeats, VH, as in the parent Ab-91, and differs from it in the CDRs of the heavy chain only.
VL: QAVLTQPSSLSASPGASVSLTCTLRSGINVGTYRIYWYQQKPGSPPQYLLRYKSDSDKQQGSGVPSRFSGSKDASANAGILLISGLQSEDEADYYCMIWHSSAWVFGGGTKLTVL
VH: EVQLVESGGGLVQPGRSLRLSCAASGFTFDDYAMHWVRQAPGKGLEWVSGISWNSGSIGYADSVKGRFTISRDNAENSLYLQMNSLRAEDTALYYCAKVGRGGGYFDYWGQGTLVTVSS

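Phage display of a naive human antibody library on the peptide gave the parent. In library AAYL51, one, two or three CDR residues were substituted; doubles and triples were drawn at random. AlphaSeq pools MATa yeast showing the antibodies with MATalpha yeast showing the peptide. Pairs that bind mate more often; barcode pairs of the diploids are counted by sequencing. The ratio of observed to expected reads was calibrated, replicate by replicate, on BCL2-family standards whose Kd was known from biolayer interferometry. There are three technical replicates.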

Substitutions are numbered in sequence along the VH above, starting at 1 (not Kabat). Affinities are written as log10 Kd with Kd in nM; a lower number is a better binder. "nd" means that the variant was in the library but no mating with the target was seen in that replicate; the authors take this as a sign of poor binding, and no number exists.

changes	log10 Kd (nM) by replicate	signal with controls
D30L/V99F	3.96 6.31 nd	6/9 (4.60)
F27P/D31Q/G50I	nd nd nd	0/9
G26S/G104W/F106T	nd nd nd	0/9
G56K/G102K/D107A	5.65 4.24 nd	4/9 (4.24)
T28C/S57E/R101P	nd nd nd	1/9 (4.25)
T28S/K65W/G103Q	nd 4.04 nd	5/9 (4.43)
I51P/S52K/Y60D	4.91 3.99 nd	2/9 (4.99)
D30T	2.44 2.20 1.56	5/9 (4.20)
I51T/G104Q/D107K	nd nd nd	0/9
M34K/G56A/V64F	nd nd 4.37	3/9 (4.60)
S52R/G59P/A61M	nd nd nd	0/9
H35L/I58K/V99M	4.30 6.32 nd	5/9 (4.79)
M34K/N54H/G100S	nd nd nd	2/9 (4.26)
Y32F/G56P/A61M	nd nd nd	0/9
G102I/D107K	nd nd 4.06	2/9 (4.10)
K65M/Y108I	1.03 0.89 0.33	1/9 (4.78)
S55H/G59T/S63V	nd nd nd	1/9 (3.26)
M34Q/N54Q/Y105V	nd nd nd	0/9
D31A/A61S/V64G	4.19 nd nd	0/9
Y32H/S55Y/S63V	nd nd nd	0/9
W53A/A61D/S63N	1.30 1.24 0.71	2/9 (5.96)
G26M/S63I/G100N	nd nd nd	0/9
Y32M/D62I/D107L	nd nd nd	0/9
G50P/Y60Q/S63V	nd nd nd	0/9
D30F/G59V/F106C	2.95 3.38 3.19	3/9 (4.64)
Y32H/A33R/H35P	nd nd nd	2/9 (5.05)
D31G/S57E/Y105E	nd nd nd	0/9
G56K/Y60V/G103K	nd nd nd	2/9 (4.50)
A33P/G59H/Y108N	3.87 4.32 nd	1/9 (5.01)
D30P/S52K/G59R	5.40 nd nd	2/9 (4.09)
F27C/A33W/S57D	3.29 4.73 4.25	3/9 (3.86)
Y32N/R101D	3.61 4.61 nd	0/9
F27H/T28Q/H35V	nd 4.86 nd	3/9 (4.96)
K65F/D107K	3.51 5.41 nd	2/9 (3.90)
A33D/V64D/R101Q	3.86 5.66 nd	4/9 (3.66)
F29G/A33Y/D62K	3.98 nd nd	3/9 (4.92)
G104V/Y108H	nd nd nd	1/9 (2.85)
F27A/Y32F	nd nd nd	3/9 (3.97)
D31E/Y32R/Y60N	nd nd nd	0/9
G50V/S52M/G100Y	nd nd nd	1/9 (5.64)
G26F/Y32L/D107W	nd nd nd	0/9
F27V/D31I/S52K	nd nd nd	0/9
D30K/D62A/G100P	3.39 3.22 3.12	4/9 (5.04)
G26A/W53C/V99A	nd nd nd	0/9
M34Q/S55W/G102H	nd nd nd	1/9 (3.86)
M34D/G59L	4.57 4.48 nd	4/9 (5.17)
H35T/V99L/G103E	nd nd nd	3/9 (4.51)
F29P/D30Y/S57G	3.90 4.60 nd	2/9 (4.19)
N54F/S55V/I58P	3.03 nd nd	0/9
M34E/S52I/G104A	5.14 nd nd	3/9 (5.27)

Again, the first 8 entries without any signal:

{"changes": "F27P/D31Q/G50I", "log10 Kd (nM) by replicate": "nd nd nd", "signal with controls": "0/9"}
{"changes": "G26S/G104W/F106T", "log10 Kd (nM) by replicate": "nd nd nd", "signal with controls": "0/9"}
{"changes": "T28C/S57E/R101P", "log10 Kd (nM) by replicate": "nd nd nd", "signal with controls": "1/9 (4.25)"}
{"changes": "I51T/G104Q/D107K", "log10 Kd (nM) by replicate": "nd nd nd", "signal with controls": "0/9"}
{"changes": "S52R/G59P/A61M", "log10 Kd (nM) by replicate": "nd nd nd", "signal with controls": "0/9"}
{"changes": "M34K/N54H/G100S", "log10 Kd (nM) by replicate": "nd nd nd", "signal with controls": "2/9 (4.26)"}
{"changes": "Y32F/G56P/A61M", "log10 Kd (nM) by replicate": "nd nd nd", "signal with controls": "0/9"}
{"changes": "S55H/G59T/S63V", "log10 Kd (nM) by replicate": "nd nd nd", "signal with controls": "1/9 (3.26)"}

Parent in this assay: reference entry 1.86, copy in this library 0.88. Empty control strains, which show no peptide, gave a signal in 21% of pairings with library AAYL51; the median was 4.54 and 95% of these signals were weaker than 3.26. No background was subtracted. Also given: how often the same scFv was detected with the empty control strains, with their mean in brackets.